What all share (experiment): Recombinant cathepsin inhibition, gel-based competition with GB123 probe
Assay type in all cases: biochemical

Sequences of proteins named here, by UniProt entry; tags and fusion partners are left off. Residues count along the entry.
UniProt P43235, 115-329 limits assumed: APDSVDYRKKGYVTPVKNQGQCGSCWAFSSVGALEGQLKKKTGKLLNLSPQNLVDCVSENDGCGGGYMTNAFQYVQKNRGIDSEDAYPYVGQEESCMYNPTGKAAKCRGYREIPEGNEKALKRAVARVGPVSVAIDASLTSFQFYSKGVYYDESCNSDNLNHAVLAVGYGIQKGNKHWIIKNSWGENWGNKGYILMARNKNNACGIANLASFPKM
UniProt P07711, 114-333 limits assumed: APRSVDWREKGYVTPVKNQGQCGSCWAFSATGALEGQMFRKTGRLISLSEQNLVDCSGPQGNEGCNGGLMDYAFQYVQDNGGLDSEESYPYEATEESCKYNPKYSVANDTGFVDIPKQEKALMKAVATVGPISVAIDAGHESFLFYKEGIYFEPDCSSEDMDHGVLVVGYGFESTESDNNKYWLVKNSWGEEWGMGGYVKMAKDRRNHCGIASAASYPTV

Experiment [1] addresses Recombinant human cathepsin B (Homo sapiens, UniProt P07858). As to conditions: read-out: CTSB (IC50); Table S2; three independent competition gel-based experiments.
Experiment [2] has as its target Recombinant human cathepsin K (Homo sapiens, UniProt P43235). As to conditions: for potency and selectivity toward CTSK and other cathepsins, in words: in-gel fluorescence, GB123; for IC50: read-out: CTSK (IC50), Table S2, three independent competition gel-based experiments.
Experiment [3] has as its target Recombinant human cathepsin L (Homo sapiens, UniProt P07711). As to conditions: read-out: CTSL (IC50); Table S2; three independent competition gel-based experiments.

Six molecules from paper PMC11938014, “Development and Application of Small Molecule–Peptide Conjugates as Cathepsin K-Specific Covalent Irreversible Inhibitors in Human Osteoclast and Lung Cancer” (JACS Au, 2025) can be followed below.

The IC50 is the midpoint of a concentration-inhibition curve.

SMILES strings stand for the structures.

Take `NCC(=O)N[C@@H](Cc1cnc[nH]1)C(=O)N1CCC[C@H]1C(=O)NCC(=O)COC(=O)[C@@H]1CCCN1C(=O)[C@H](CC(=O)O)NC(=O)OCC1c2ccccc2-c2ccccc21`: the IC50 in experiment [1] is 6.6 µM; in experiment [2] it was over 5 µM; in experiment [3], over 5 µM. The “potency and selectivity toward CTSK and other cathepsins, in words” value in experiment [2] is “very low potency and no selectivity”.

Consider `O=C(NCC(=O)N1CCC[C@H]1C(=O)NCC(O)(CSc1c(F)c(F)cc(F)c1F)Sc1c(F)c(F)cc(F)c1F)OCc1ccccc1` (stereo partly shown), for which the results for the IC50 in experiment [1], in experiment [2] and in experiment [3] were over 5 µM, 2 µM and over 5 µM, respectively.

Consider `NCCCC[C@H](NC(=O)[C@H](Cc1ccccc1)NC(=O)OCc1ccccc1)C(O)(CSc1c(F)c(F)cc(F)c1F)Sc1c(F)c(F)cc(F)c1F` (stereo partly shown), for which the IC50 was 5.2 µM in experiment [1], 8.3 µM in experiment [2] and over 5 µM in experiment [3].

`CC(C)C[C@H](NC(=O)OCC1c2ccccc2-c2ccccc21)C(=O)N1CCC[C@H]1C(=O)NCC(=O)OCC(=O)[C@H](CCCCNC(=O)OC(C)(C)C)NC(=O)[C@@H]1CCCN1C(=O)CNC(=O)OCc1ccccc1`: the IC50 is over 5 µM in experiment [1], 5.4 µM in experiment [2] and over 5 µM in experiment [3]. Also, the “potency and selectivity toward CTSK and other cathepsins, in words” value in experiment [2] is “very low potency and no selectivity”.

As to `NCC(=O)N[C@@H](Cc1cnc[nH]1)C(=O)N1CCC[C@H]1C(=O)NCC(=O)COC(=O)[C@@H]1CCCN1C(=O)[C@H](CCC(N)=O)NC(=O)OCC1c2ccccc2-c2ccccc21`, the IC50 in experiment [1] was 4 µM; in experiment [2], over 5 µM; in experiment [3], 3.1 µM. Also, in experiment [2], the “potency and selectivity toward CTSK and other cathepsins, in words” value is “very low potency and no selectivity”.

As to `CC(C)C[C@H](NC(=O)OCC1c2ccccc2-c2ccccc21)C(=O)N1CCC[C@H]1C(=O)OCC(=O)CNC(=O)[C@@H]1CCCN1C(=O)[C@H](Cc1cnc[nH]1)NC(=O)CN`, the IC50 in experiment [1] is 0.69 µM; in experiment [2], over 5 µM; in experiment [3] it was 0.69 µM. In addition, the “potency and selectivity toward CTSK and other cathepsins, in words” value in experiment [2] was “very low potency and no selectivity”.
